By UniProt entry, the sequences of proteins in these tests, tags left out. Where a name states a change or a piece, a line headed by the entry shows the natural chain unless it says otherwise. Residues count along the entry.
UniProt P08482: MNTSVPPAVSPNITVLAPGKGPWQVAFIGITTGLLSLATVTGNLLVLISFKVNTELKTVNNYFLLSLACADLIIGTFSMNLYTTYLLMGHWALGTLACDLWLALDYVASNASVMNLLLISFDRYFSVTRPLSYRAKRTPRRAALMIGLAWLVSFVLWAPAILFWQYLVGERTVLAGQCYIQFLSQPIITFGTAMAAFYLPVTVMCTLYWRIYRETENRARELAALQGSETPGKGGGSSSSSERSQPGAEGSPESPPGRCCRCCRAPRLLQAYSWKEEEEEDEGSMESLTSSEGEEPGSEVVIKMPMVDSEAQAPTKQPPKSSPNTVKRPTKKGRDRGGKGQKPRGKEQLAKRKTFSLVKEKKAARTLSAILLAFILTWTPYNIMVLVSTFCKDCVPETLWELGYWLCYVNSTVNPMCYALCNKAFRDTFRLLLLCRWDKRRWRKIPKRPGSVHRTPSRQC
UniProt P41595, whole entry: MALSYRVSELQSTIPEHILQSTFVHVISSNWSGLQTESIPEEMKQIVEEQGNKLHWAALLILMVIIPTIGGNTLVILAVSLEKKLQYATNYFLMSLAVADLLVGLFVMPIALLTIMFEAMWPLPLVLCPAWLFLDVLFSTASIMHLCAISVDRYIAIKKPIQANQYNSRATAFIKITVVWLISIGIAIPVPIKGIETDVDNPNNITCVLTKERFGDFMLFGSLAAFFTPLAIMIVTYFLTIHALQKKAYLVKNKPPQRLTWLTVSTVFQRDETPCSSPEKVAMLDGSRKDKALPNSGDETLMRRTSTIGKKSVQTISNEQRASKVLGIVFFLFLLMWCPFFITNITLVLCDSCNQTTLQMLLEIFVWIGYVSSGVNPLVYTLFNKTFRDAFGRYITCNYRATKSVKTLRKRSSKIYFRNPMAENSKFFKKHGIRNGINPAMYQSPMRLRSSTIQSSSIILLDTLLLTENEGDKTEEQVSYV
UniProt P28335, 33-458: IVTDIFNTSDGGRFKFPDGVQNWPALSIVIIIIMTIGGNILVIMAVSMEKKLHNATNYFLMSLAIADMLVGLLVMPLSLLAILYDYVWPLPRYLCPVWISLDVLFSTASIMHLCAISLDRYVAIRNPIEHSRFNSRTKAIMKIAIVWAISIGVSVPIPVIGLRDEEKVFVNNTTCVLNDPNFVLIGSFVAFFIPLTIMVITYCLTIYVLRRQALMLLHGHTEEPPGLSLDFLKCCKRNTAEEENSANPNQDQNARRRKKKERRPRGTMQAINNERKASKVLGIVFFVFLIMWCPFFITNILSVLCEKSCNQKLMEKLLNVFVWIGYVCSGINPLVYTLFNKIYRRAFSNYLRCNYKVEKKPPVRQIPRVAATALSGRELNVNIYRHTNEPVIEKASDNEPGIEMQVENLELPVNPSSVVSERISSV

In US20220370381A1 (published 2022):

Key:
[1] = molecular target: Muscarinic M1 (Rattus norvegicus, UniProt P08482); experiment: Competitive radioligand binding assay, muscarinic M1
[2] = molecular target: Serotonin 5-HT2B (Human recombinant) (Homo sapiens, UniProt P41595); experiment: Competitive radioligand binding assay, serotonin 5-HT2B
[3] = molecular target: Serotonin 5-HT2C (Human recombinant) (Homo sapiens, UniProt P28335); experiment: Competitive radioligand binding assay, serotonin 5-HT2C

## CCNC(C)Cc1cccc(C(F)(F)F)c1 (racemic) [fenfluramine, (RS)—N-ethyl-1-[3-(trifluoromethyl)phenyl]propan-2-amine]
[1]
  IC50: 13 µM
  Ki: 11.3 µM
[1]; test article 1×10^−6 and 1×10^−5 mol/L, rat cerebral cortex
  inhibition of receptor binding (tracer): significantly inhibit

## CCN[C@@H](C)Cc1cccc(C(F)(F)F)c1 [Dexfenfluramine]
[1]
  IC50: 9.57 µM
  Ki: 8.3 µM
[2]
  IC50: 7.55 µM
  Ki: 4.63 µM
[3]
  IC50: 3.99 µM
  Ki: 2.91 µM
